What was measured:
BCL-XL = BCL-XL (Homo sapiens, UniProt Q07817); test: BCL-XL degradation assay in MOLT-4 cells (ELISA, 6 h); details: for DC50: read-out: Bcl-xL ELISA in MOLT-4 degradation 6 h: External Abs-DC50
MOLT-4 cells = test: CTG (CellTiter-Glo) cell viability assay, MOLT-4; details: read-out: CTG Cell Viability Assay - MOLT-4 3 day: Average external-IC50
Method: (§1) Compound-mediated viability effect on MOLT-4 and Caki-2 was quantitatively determined using the CellTiter-Glo® Luminescent Cell Viability Assay kit from Promega (Catalog number G7570) following manufacturer's recommended procedures. Briefly, MOLT-4 and Caki-2 cells were seeded into 384 well plates (Grenier Bio-One, Catalog number 781080) with a density of 10,000 cells per well. Compounds were then added to the assay plate with final top concentration of 10 µM and 1:3 dilution series with total of 9 doses. The final DMSO concentration is normalized to 0.2%. The assay plates were incubated at 37° C. for 3 days under 5% CO2. Then the assay plate was equilibrated at room temperature for 10 minutes. To determine cell viability, 30 uL CellTiter Glo reagent was added to each well and the assay plate was centrifuged at 1000 rpm for 30 second, incubated at room temperature for 10 min, and analyzed by detecting the luminescence using a multimode plate reader (EnVision 2105, PerkinElmer). The data was then analyzed by software Prism 7.0 from GraphPad and the dose response curves are fit using a three-parameter logistic equation to calculate IC50.
(§2) The letter codes for MOLT-4 IC50 include: A (<0.1 μM); B (0.1-1.0 μM); C (>1.0-3.0 μM); and D (>3.0 μM). The letter codes for Caki-2 IC50 include: A (<5 μM); B (5-10 μM); C (>10-30.0 μM); and D (>30.0 μM).

Protein sequences, listed by entry. Tags and fused reporters are not part of them.
UniProt Q07817, whole entry: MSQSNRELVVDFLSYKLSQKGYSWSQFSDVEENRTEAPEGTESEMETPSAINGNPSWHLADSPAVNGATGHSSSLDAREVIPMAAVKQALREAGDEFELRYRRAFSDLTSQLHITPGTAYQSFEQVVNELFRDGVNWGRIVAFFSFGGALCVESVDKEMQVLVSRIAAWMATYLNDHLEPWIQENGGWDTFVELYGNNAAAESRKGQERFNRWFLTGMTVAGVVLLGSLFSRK

Caki-2 cells = test: CTG (CellTiter-Glo) cell viability assay, Caki-2; details: read-out: CTG Chempartner/PHA- Caki-2 3-day: Average external-IC50
Method: as §1, §2

| Structure (SMILES) | Bcl-xL ELISA in MOLT-4 degradation 6 h: Dmax % (BCL-XL) | DC50 (BCL-XL) [nM] | IC50 (MOLT-4 cells) [nM] | IC50 (Caki-2 cells) [nM] |
| --- | --- | --- | --- | --- |
| Cc1ncsc1-c1ccc([C@H](C)NC(=O)[C@@H]2C[C@@H](O)CN2C(=O)[C@@H](NC(=O)CCCCCCC(=O)N2CCN(CC[C@H](CSc3ccccc3)Nc3ccc(S(=O)(=O)NC(=O)c4ccc(N5CCN(Cc6ccccc6-c6ccc(Cl)cc6)CC5)cc4)cc3[N+](=O)[O-])CC2)C(C)(C)C)cc1 | C (C (<50%)) | 500 to 1000 | > 3000 | > 30000 |
| Cc1ncsc1-c1ccc([C@H](C)NC(=O)[C@@H]2C[C@@H](O)CN2C(=O)[C@@H](NC(=O)CCCCCCCN2CCN(CCCNc3ccc(S(=O)(=O)NC(=O)c4ccc(N5CCN(CC6=C(c7ccc(Cl)cc7)CC(C)(C)CC6)CC5)cc4Oc4cnc5[nH]ccc5c4)cc3S(=O)(=O)C(F)(F)F)CC2)C(C)(C)C)cc1 | B (B (50 to 75%)) | 10 to 100 | 100 to 1000 | > 30000 |
| Cc1ncsc1-c1ccc([C@H](C)NC(=O)[C@@H]2C[C@@H](O)CN2C(=O)[C@@H](NC(=O)CCCCCCC(=O)Nc2ccc(-c3ccc(Cl)cc3)c(CN3CCN(c4ccc(C(=O)NS(=O)(=O)c5ccc(N[C@H](CCN(C)C)CSc6ccccc6)c([N+](=O)[O-])c5)cc4)CC3)c2)C(C)(C)C)cc1 | B (B (50 to 75%)) | 500 to 1000 | > 3000 | > 30000 |
| Cc1ncsc1-c1ccc([C@H](C)NC(=O)[C@@H]2C[C@@H](O)CN2C(=O)[C@@H](NC(=O)CCCCCCN2CCN(C(=O)c3ccc(-c4ccc(Cl)cc4)c(CN4CCN(c5ccc(C(=O)NS(=O)(=O)c6ccc(N[C@H](CCN(C)C)CSc7ccccc7)c([N+](=O)[O-])c6)cc5)CC4)c3)CC2)C(C)(C)C)cc1 | C (C (<50%)) | 500 to 1000 | > 3000 | > 30000 |

Source: patent US20260092057A1, “BCL-XL/BCL-2 DEGRADERS AND USES THEREOF” (Kymera Therapeutics, Inc., priority 2022, published 2026)
